Details of data set [1]: species or system Balb/c mice. As to conditions: mouse, in vivo. As to the method:
Their pharmacokinetic profile in blood was evaluated in vivo by injecting each ^131I-labeled DIII protein intravenously in Balb/c mice. Blood was drawn from the tail at eight different time points (0-72 h) and the radioactivity was counted in a gamma well counter. […] Selected DIII proteins will be used as scaffolds for grafting or chemically conjugating tumor targeting molecules (peptides, aptamers or small chemical moieties), as well as for directly for generation of combinatorial display libraries. Target specific scaffolds with suitable pharmacokinetics for diagnostic purposes may be used in imaging applications. Alternatively, potential anti-tumor drugs could be conjugated to the targeted scaffolds with optimal characteristics for therapy and utilized in cancer treatment.
This spectrum of circulation residence times allows for one to choose the DIII platform that can fit best the desired application (e.g. therapy, imaging).

Data set [2] has as its system 293 cells devoid of FcRn expression. In words: Control binding of Alexa Fluor 647 conjugated HSA to 293 cells devoid of FcRn expression. The format is cell-based, human. As to the method: Dilutions of each fluorescent protein ranging from 0.316 to 3160 nM (in triplicates) were incubated with confluent 293 human embryonic kidney cells expressing human FcRn (Petkova et al., Int Immunol. 2006; 18:1759-1769) at pH 6.5 in a round bottom 96-well plate. […] Following a washing step with 1×PBS (pH 6.5), the cells were imaged by the Maestro™ In-Vivo Fluorescence Imaging System (CRi, Woburn, Mass.) using Deep Red (671-705 nm) excitation and Red (700 nm longpass) emission filters. Same size regions of interest (ROI) were drawn in each well and the fluorescent signal was measured and averaged for each dilution. A binding curve was generated with mean fluorescence as a function of Alexa-Fluor 647 conjugated DIII protein concentration. The DIII concentration at which 50% fluorescence was measured signified the DIII protein relative binding affinity for FcRn (see, FIG. 6).

As to “HSA: Human serum albumin, entire protein; 67 kDa [reference compound]”, in data set [1], the “AUC (time integral of the blood uptake)” value is listed as 746 % ID/g × h, the “Aα (amplitude)” value turned out to be 26.88 % ID/g, the “Aβ (amplitude)” value worked out at 27.49 % ID/g and the k1 came out at 0.454. Besides, in data set [1], the k2 is on record as 0.04, the t1/2α worked out at 1.52 h and the t1/2β was found to be 17.3 h. Also, the “Binding to 293 cells (devoid of FcRn)” value in data set [2] is listed as “did not bind”.
